Test results from US6552060B1, “Asymmetric disulfides and methods of using same” (Prolx Pharmaceuticals, Inc., priority 1997, dated 2003).
pKi: −log10 of the molar value.

Experiments:
[1] = target: T1, Human placental thioredoxin reductase (Homo sapiens, UniProt Q16881); assay: NADPH oxidation by thioredoxin reductase with the disulfide as substrate, or with thioredoxin and insulin as final electron acceptor and the disulfide as inhibitor; assay type: biochemical; conditions: competitive inhibitors of the reduction of thioredoxin by thioredoxin reductase
T1 sequence (Q16881 1-499 isoform Q16881-5): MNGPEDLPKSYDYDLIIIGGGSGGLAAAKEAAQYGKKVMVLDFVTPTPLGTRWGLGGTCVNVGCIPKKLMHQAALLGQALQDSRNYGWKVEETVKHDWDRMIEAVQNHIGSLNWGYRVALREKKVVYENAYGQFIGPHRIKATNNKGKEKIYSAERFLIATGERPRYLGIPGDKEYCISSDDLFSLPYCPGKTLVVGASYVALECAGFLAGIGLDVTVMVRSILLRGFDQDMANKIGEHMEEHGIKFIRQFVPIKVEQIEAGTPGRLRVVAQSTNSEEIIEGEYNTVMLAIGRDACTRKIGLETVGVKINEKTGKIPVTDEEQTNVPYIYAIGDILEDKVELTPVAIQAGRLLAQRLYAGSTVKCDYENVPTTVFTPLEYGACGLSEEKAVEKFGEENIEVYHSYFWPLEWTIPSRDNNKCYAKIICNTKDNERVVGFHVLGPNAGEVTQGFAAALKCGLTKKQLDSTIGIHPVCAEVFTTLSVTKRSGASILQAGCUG
Method: The thioredoxin was stored at −20° C. with 5 mM dithiothreitol which was removed before use with a desalting column (PD10, Pharmacia, Uppsala, Sweden).
Asymmetrical 2-imidazolyl disulfides which were used as a basis for further development and identified below in Table 1. In Table I, NADPH oxidation by thioredoxin reductase was measured spectrophotometrically as described with either the disulfide as the electron acceptor (substrate) or with thioredoxin and insulin as the final electron acceptor and the disulfide as inhibitors. The reactions were initiated by the addition of NADPH. Km and Ki values were calculated from Lineweaver-Burk plots of the data.
The compounds of Table 1 were synthesized by a method described previously and recrystallized prior to use. Stock solutions of the disulfides were prepared at 10 mM in ethanol and diluted in aqueous media just prior to use. N-ethylmaleimide (NEM), diamide, and DTT were obtained from Sigma Chemical Co. (St. Louis, Mo.). All other chemicals used were of reagent grade. […]

[2] = system: MCF-7 breast cancer cells in scid mice; assay: Activity against MCF-7 breast cancer cells in scid mice; assay type: in vivo
Description: This is shown below in Table II.

[3] = system: human primary tumors; assay: Growth of human primary tumors in soft agarose; assay type: cell-based

Structure (SMILES): CCC(C)SSc1ncc[nH]1 (centres unmarked) [IV-2, 1-methylpropyl 2-imidazolyl disulfide]
- pKi [1]: 4.51
- Toxicity dead/injected ([2]; 5 mg/kg/day i.p. for 14 days): 2/8
- Toxicity dead/injected ([2]; 10 mg/kg/day i.p. for 14 days): 0/7
- Toxicity dead/injected ([2]; 15 mg/kg/day i.p. for 14 days): 0/7
- tumor type selectivity in soft agarose [3]: selectivity for myeloma, cervical and breast cancer
